This is an account of results in PubChem BioAssay AID588436 (Broad Institute, 2011).

The entries are a selection whose mix differs from that of the whole data set. Calls of active or inactive are those of the source. Cut-off read from the data, not from the text of the source: active = activation mostly above about 9.7% (no sharp cut-off); inconclusive = no clear call, values can overlap the other calls; inactive = mostly below about 3.7%.

This assay is described as follows: induces V. cholerae light production without autoinducers, primary screen, BH1578 luxS cqsA deficient, single point (AID 588436). The following applies: V. cholerae BH1578 lux reporter, luminescence, 6 h; at 18.7 µM; hits give high values.
In the case of `CCCOP(=S)(Nc1nc(N)cc(=O)[nH]1)OCCC`, the activation was inactive: 0.4%.

Take `Cc1ccc(NCCc2c([N+](=O)[O-])cc([N+](=O)[O-])cc2[N+](=O)[O-])cc1`: the activation is inactive: -0.252%.

Consider `Nc1cccc2c([As](=O)(O)O)cccc12`, for which the activation is inactive: 0%.

As for `COc1cc(C2NCCC3(OCCO3)C2(C)C)cc(OC)c1OC` (centres undefined), the activation is inactive: 0.102%.

In the case of `CCOP(=O)(Nc1cccc2ccccc12)OCC`, the activation was inactive: -0.311%.

In the case of `O=[As](O)(O)c1cccnc1`, the activation is inactive: -0.682%.

In the case of `COc1cc(C(=O)NCC2(N3CCOCC3)CCCCC2)cc(Cl)c1OC(C)C`, the activation was inactive: -0.373%.

As for `CS(=O)(=O)c1ccc(Cl)c(NC(=O)COC(=O)C(O)(c2ccccc2)c2ccccc2)c1`, the activation was inactive: 0%.

Take `O=C(OC1CN2CCC1CC2)c1ccc(Cl)cc1` (centres undefined): the activation is inactive: -0.161%.

As for `Cc1cccc(OCC(=O)OC2CN3CCC2CC3)c1` (centres undefined), the activation was inactive: 4.17%.

Regarding `O=[As](O)(c1cccc(O)c1)c1cccc(O)c1`, the activation is inactive: 0%.

Consider `O=[N+]([O-])c1ccc2c(c1)nnn2O`, for which the activation was inactive: 1.04%.

`CN(C)C(=O)c1cc([N+](=O)[O-])cc2c1-c1c(cc([N+](=O)[O-])cc1[N+](=O)[O-])C2=O`: the activation is inactive: 0%.

Consider `CN(C(=O)Cc1ccc(Cl)c(Cl)c1)[C@H]1CC[C@@]2(CCCO2)C[C@@H]1N1CCCC1`, for which the activation was inactive: -0.392%.

With `N#CCCN(C(=O)COC(=O)C(O)(c1ccccc1)c1ccccc1)c1ccc(F)cc1`, the activation was inactive: 0%.

In the case of `CN(C(=O)Cc1ccccc1)[C@@H]1CC[C@]2(CCCO2)C[C@H]1N1CCCC1`, the activation is inactive: -0.256%.

Regarding `CCOP1(=S)c2c(C)nn(CCC#N)c2N=C(c2ccc(F)cc2)N1C` (centres undefined), the activation is inactive: -3.57%.

For the molecule `CS(=O)(=O)c1cc([N+](=O)[O-])c2no[n+]([O-])c2c1`, the activation was inactive: 0%.

Consider `CCOP1(=S)c2c(C)nn(CCC#N)c2N=C(c2ccccc2F)N1C` (centres undefined), for which the activation is inactive: -8.33%.

`O=P(Nc1nccs1)(c1ccccc1)c1nc2ccccc2s1` (centres undefined): the activation was inactive: 0%.

In the case of `Nc1ccccc1[As](=O)(O)c1ccccc1`, the activation is inactive: 0%.

On to `O=C(O)COc1ccc([As](=O)(O)O)cc1[N+](=O)[O-]`, for which the activation was inactive: -5.56%.

Consider `O=P1(Nc2ncccn2)COc2ccccc2OC1`, for which the activation was inactive: 0%.

As for `Cc1ccc(OCC(=O)OC2CN3CCC2CC3)cc1` (centres undefined), the activation is inactive: -0.595%.

Take `O=[As](O)(c1cccs1)c1cccs1`: the activation was inactive: -0.612%.

On to `O=P1(Nc2ccc(Br)cn2)COc2ccccc2OC1`, for which the activation was inactive: 0%.

With `NS(=O)(=O)c1cccc(NC(=O)COC(=O)C(O)(c2ccccc2)c2ccccc2)c1`, the activation was inactive: 0%.

On to `Nc1cccc([As](=O)(O)c2ccccc2)c1`, for which the activation was inactive: -0.39%.

For the molecule `Cc1nn(-c2ccccc2)c2c1P(=O)(N1CCOCC1)N(C)C(c1ccccc1)=N2` (centres undefined), the activation is inactive: 0%.

`CC1CCC(C(C)C)C(OP(=O)(Nc2ccccn2)c2ccccc2)C1` (centres undefined): the activation is inactive: -0.292%.

On to `Cc1ccc(C(=O)OC2CN3CCC2CC3)cc1` (centres undefined), for which the activation is inactive: -1.14%.

Regarding `O=C(/C=C/c1ccccc1)OC1CN2CCC1CC2` (centres undefined), the activation was inactive: -0.907%.

As to `CN(C)C1(CNC(=O)c2ccc(S(C)(=O)=O)cc2)CCCCC1`, the activation was inactive: -0.366%.

As to `COc1ccccc1CNC(=O)COC(=O)C(O)(c1ccccc1)c1ccccc1`, the activation is inactive: 0%.

In the case of `CC1(CBr)Cn2c(nc3ccccc3c2=O)S1` (centres undefined), the activation is inactive: 3.45%.

Regarding `CC(C)/C=N\N=C(\N)N[N+](=O)[O-]`, the activation is inactive: 0.136%.

Take `CN(C(=O)Cc1ccc(Cl)c(Cl)c1)[C@@H]1CCCC[C@H]1N1CCCC1`: the activation is inactive: 8.33%.

For the molecule `CCOP(=O)(Nc1ccc(C)cn1)OCC`, the activation is inactive: 0%.

For the molecule `CN(CCCl)Cc1cc(Cl)c(NC2=NCCN2)c(Cl)c1`, the activation is inactive: -0.259%.

Turning to `O=P1(Nc2ccccn2)COc2ccccc2OC1`, the activation is inactive: 0%.

As to `CCC1=CC2Cc3nc4ccc(Cl)cc4c(N)c3C(C1)C2` (centres undefined), the activation was inactive: -0.874%.

Take `CCOP(=O)(NC(=NC(C)c1ccccc1)NC(C)c1ccccc1)OCC` (centres undefined): the activation is inactive: -6.9%.

With `O=P1(N(CCCl)CCCl)NCCC(C(F)(F)F)O1` (centres undefined), the activation was inactive: -5.26%.

As for `Clc1n[nH]nc1-c1nn[nH][15n]1`, the activation was inactive: -0.695%.

Consider `CC(C)(C)C(=O)NC(Sc1ncccn1)C(Cl)(Cl)Cl` (centres undefined), for which the activation was inactive: 0%.

As for `CCOC(=O)c1ccc(NC(=O)C(C)(CCl)SC)cc1` (centres undefined), the activation was inactive: -0.616%.

In the case of `O=C(OC1CN2CCC1CC2)c1cccc([N+](=O)[O-])c1` (centres undefined), the activation was inactive: -0.558%.

As for `CSc1ccc(Nc2c([N+](=O)[O-])cc([N+](=O)[O-])cc2[N+](=O)[O-])cc1`, the activation was inactive: 0%.

For `CCC(C)N(CC(C)C)C(=S)SC(NC(C)=O)C(Cl)(Cl)Cl` (centres undefined), the activation was inactive: 0%.

In the case of `COP1(=S)c2c(C)nn(CCC#N)c2N=C(c2ccc(F)cc2)N1C` (centres undefined), the activation was inactive: 0%.

In the case of `O=C(COc1ccccc1)OC1CN2CCC1CC2` (centres undefined), the activation is inactive: -0.429%.

For the molecule `O=C(Nc1ccncc1[N+](=O)[O-])c1ccc([N+](=O)[O-])cc1[N+](=O)[O-]`, the activation was inactive: -0.618%.

Regarding `O=C(O)C(=O)c1ccc(N(CCCl)CCCl)cc1`, the activation is inactive: 0%.

Regarding `CCOC(=O)Nc1cccc([As](=O)(O)O)c1`, the activation is inactive: 0%.

For `O=[N+]([O-])c1ccc(Nc2ccc(Oc3ccc([N+](=O)[O-])cc3[N+](=O)[O-])cc2)c([N+](=O)[O-])c1`, the activation was inactive: -0.51%.

`O=P(Nc1ccccn1)(c1cccc2ccccc12)c1cccc2ccccc12`: the activation is inactive: -0.267%.

With `Cc1cc(SC(NC=O)C(Cl)(Cl)Cl)ncn1` (centres undefined), the activation was inactive: -1.41%.

In the case of `CC1CCNP(=O)(N(CCCl)CCCl)O1` (centres undefined), the activation was inactive: 0%.

As for `CCOC(=O)Nc1ccc([As](=O)(O)O)c(O)c1`, the activation was inactive: -0.296%.

On to `O=C(O)C(O)c1ccc(N(CCCl)CCCl)cc1` (centres undefined), for which the activation is inactive: 0%.

In the case of `CCCCOc1ccc(C(=O)NCC2(N3CCCCC3)CCCCC2)cc1OC`, the activation is inactive: -2.55%.

`Cc1cc(SC(NC(=O)c2ccccc2)C(Cl)(Cl)Cl)nc(C(C)C)n1` (centres undefined): the activation was inactive: -0.387%.

`COP(=O)(OC)N1CC1c1ccccc1` (centres undefined): the activation was inactive: 0%.

Regarding `COC(=O)C1(C)COP(=O)(N2CCCCCC2)OC1` (centres undefined), the activation was inactive: 1.09%.
